Test results as given in PubChem BioAssay AID1460 (National Center for Advancing Translational Sciences (NCATS), 2008).
Hit rate of the full screen: of about 270,000 compounds, about 5,800 (2.1%) were called active. Listed are the inconclusive results; actives and inactives stand elsewhere. Calls come from the whole dose curve; as a rule, active = well fitted inhibition curve with a large enough effect; inconclusive = small, poorly fitted or top-dose-only effect; inactive = flat fitted curve, though single readings scatter.

Protein sequences, listed by entry. Tags and fused reporters are not part of them.
UniProt P10636, whole entry, looked up: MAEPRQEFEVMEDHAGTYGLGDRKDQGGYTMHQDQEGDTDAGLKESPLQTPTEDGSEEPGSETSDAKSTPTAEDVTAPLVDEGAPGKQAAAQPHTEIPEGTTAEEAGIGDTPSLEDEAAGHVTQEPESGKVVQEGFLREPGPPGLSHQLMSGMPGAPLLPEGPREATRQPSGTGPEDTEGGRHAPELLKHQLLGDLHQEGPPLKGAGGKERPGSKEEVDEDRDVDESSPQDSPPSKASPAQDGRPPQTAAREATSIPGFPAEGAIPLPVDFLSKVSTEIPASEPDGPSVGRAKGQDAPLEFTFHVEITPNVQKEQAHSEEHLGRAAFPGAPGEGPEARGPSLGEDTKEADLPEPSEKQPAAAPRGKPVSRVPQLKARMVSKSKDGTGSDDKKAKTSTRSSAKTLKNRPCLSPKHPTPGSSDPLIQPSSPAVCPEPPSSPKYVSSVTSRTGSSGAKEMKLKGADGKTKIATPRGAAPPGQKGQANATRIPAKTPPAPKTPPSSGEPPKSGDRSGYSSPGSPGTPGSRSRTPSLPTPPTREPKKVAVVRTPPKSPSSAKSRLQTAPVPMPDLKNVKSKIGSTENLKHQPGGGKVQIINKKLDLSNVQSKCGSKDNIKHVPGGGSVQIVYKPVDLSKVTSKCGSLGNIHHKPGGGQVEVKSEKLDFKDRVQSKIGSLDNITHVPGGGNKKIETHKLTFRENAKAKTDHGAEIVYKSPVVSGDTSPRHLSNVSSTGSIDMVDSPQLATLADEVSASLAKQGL

target: Microtubule-associated protein tau (Homo sapiens) (UniProt P10636); test: qHTS for Inhibitors of Tau Fibril Formation, Thioflavin T Binding; settings: recombinant tau K18 P301L (four-repeat tau fragment), heparin-induced fibrillization, ThT fluorescence; note: nearly all actives have a fitted effect of over 55% in size
Potency is the fitted concentration of half-maximal effect.

| Structure (SMILES) | Potency |
| --- | --- |
| CC(C)(C)C(=O)NC(Sc1ncccn1)C(Cl)(Cl)Cl (centres undefined) | inconclusive: 39.8 µM |
| Nc1cccc2c([As](=O)(O)O)cccc12 | inconclusive: 3.16 µM |
| O=P(Nc1nccs1)(c1ccccc1)c1nc2ccccc2s1 (centres undefined) | inconclusive: 11.2 µM |
| CCN(CC)C(=S)SC(NC=O)C(Cl)(Cl)Cl (centres undefined) | inconclusive: 28.2 µM |
| O=[N+]([O-])c1cc([N+](=O)[O-])c(-c2ccn[nH]2)s1 | inconclusive: 39.8 µM |
| Cc1ccc2nc3c(c(C)c2c1)CC(C(Cl)Cl)S3 (centres undefined) | inconclusive: 20 µM |
| Cc1c2c(nc3ccccc13)SC(C(Cl)Cl)C2 (centres undefined) | inconclusive: 39.8 µM |
| CCC(C)N(CC(C)C)C(=S)SC(NC(C)=O)C(Cl)(Cl)Cl (centres undefined) | inconclusive: 39.8 µM |
| Cc1cc(SC(NC(=O)c2ccccc2)C(Cl)(Cl)Cl)nc(C(C)C)n1 (centres undefined) | inconclusive: 28.2 µM |
| COc1ccc(C2=NCC(CBr)S2)cc1 (centres undefined) | inconclusive: 17.8 µM |
| CCc1nc2c(n1)c1c(non1O)c1c2no[n+]1[O-] | inconclusive: 25.1 µM |
| O=C(O)c1ccccc1[As](=O)(O)O | inconclusive: 25.1 µM |
| CC(=O)NC(SC(=S)N(C)C)C(Cl)(Cl)Cl (centres undefined) | inconclusive: 20 µM |
| O=P(Nc1nc2ccccc2s1)(c1ccccc1)c1ccccc1 | inconclusive: 15.8 µM |
